Binding of CDR-mutated scFvs to a peptide of the spike HR2 region

Antigen: PDVDLGDISGINAS, a 14-residue peptide of the SARS-CoV-2 spike HR2 region.

Parent: Ab-95, a human scFv built as VH, a 15-residue (Gly4Ser)3 linker, VL. Only the CDRs of the light chain vary.
VH: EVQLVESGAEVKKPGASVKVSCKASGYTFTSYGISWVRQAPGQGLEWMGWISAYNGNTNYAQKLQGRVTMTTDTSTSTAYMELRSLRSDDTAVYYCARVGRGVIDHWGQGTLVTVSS
VL: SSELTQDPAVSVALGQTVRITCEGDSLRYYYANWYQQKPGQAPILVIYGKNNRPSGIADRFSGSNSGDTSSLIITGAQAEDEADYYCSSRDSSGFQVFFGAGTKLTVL

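The starting antibody came from a phage panning campaign against this peptide. AAYL52 was designed without a model: most single CDR substitutions and a random sample of double and triple ones. The assay is AlphaSeq: two haploid yeast populations carry antibody and antigen on their surface. After mating in shaken culture at 30 °C for 16 h, diploids were selected and their barcode pairs sequenced. Read counts were normalised to the haploid input and turned into Kd by a linear fit to BCL2-family pairs of known affinity, for each replicate. Mating was done three times.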

Each variant is given by its three light chain CDRs, as the data file delimits them; those of the parent are EGDSLRYYYAN, GKNNRPS, SSRDSSGFQVF.
Affinities are written as log10 Kd with Kd in nM; a lower number is a better binder.
Averages over replicates are reported, and they cover detected replicates only.
"nd" marks a missing value. The strain was present, yet no cells mated with the target were sequenced in any replicate, which points to weak or no binding.
The list is sorted by this average, lowest first, undetected variants last.
Nonspecific signal, from three strains lacking the peptide, appeared in 28% of pairings of library AAYL52, centred on 3.91 (5% of these signals below 2.90); values are not corrected for it. For each scFv, signals with the empty controls are counted beside the result.
In this assay the parent's reference entry averaged 2.31; its copy inside this library read 2.25.

For EGESLRYYQAN, GKNNRPS, SSRDVSGFQVF, the assay gave 0.98 (3 of 3 replicates; controls 5 of 9).
For EGDSLRTYYAN, GKNNRPS, SSRDFSGFQVF, the assay gave 2.06 (3 of 3 replicates; controls 6 of 9).
For EGLSLRYYYAN, GKNNRPE, SSRDSAGFQVF, the assay gave 2.29 (3 of 3 replicates; controls 3 of 9).
For FGDFLRYYYAN, GKNNRPS, SSRDSSGFQVF, the assay gave 2.32 (3 of 3 replicates; controls 5 of 9).
For EGDSTRPYYAN, GKNNRPS, SSRDSSGFQVW, the assay gave 2.33 (3 of 3 replicates; controls 0 of 9).
For ECHQLRYYYAN, GKNNRPS, SSRDSSGFQVF, the assay gave 2.46 (3 of 3 replicates; controls 2 of 9).
For KGKSLRYYYAN, GKNNRYS, SSRDSSGFQVF, the assay gave 2.94 (3 of 3 replicates; controls 1 of 9).
For EGDSLRYYYAN, NKNNRPS, SSRDSSGFYSF, the assay gave 2.95 (2 of 3 replicates; controls 1 of 9).
For EIDSLGYYYAN, GKNNRPE, SSRDSSGFQVF, the assay gave 3.07 (3 of 3 replicates; controls 5 of 9).
For EGQSLRYYYAT, GKNNRPS, SSRDSSIFQVF, the assay gave 3.10 (1 of 3 replicates; controls 5 of 9).
For VGDSLRYYYAN, GKNNRKS, SSRDSNGFQVF, the assay gave 3.12 (3 of 3 replicates; controls 1 of 9).
For EGDSLCYYYAN, GKNNRPS, SSWDSSGFPVF, the assay gave 3.22 (3 of 3 replicates; controls 3 of 9).
For EGDSLRYYYAN, EKNNRPS, LSRDSSGFQGF, the assay gave 3.25 (2 of 3 replicates; controls 2 of 9).
For EGDSLRYYYGN, GINNRPS, SSIDSSGFQVF, the assay gave 3.25 (2 of 3 replicates; controls 3 of 9).
For LGDSLRYYYAN, GKNNRPS, SSRNSSGFQVL, the assay gave 3.33 (1 of 3 replicates; controls 2 of 9).
For EGDSLRYYYSN, GKPNRPH, SSRDSSGFQVF, the assay gave 3.40 (1 of 3 replicates; controls 4 of 9).
For MGDSLRYYYAN, GNNNRPS, SRRDSSGFQVF, the assay gave 3.42 (3 of 3 replicates; controls 4 of 9).
For EFDSLRYYYAY, GKNNRPS, SSRDLSGFQVF, the assay gave 3.58 (3 of 3 replicates; controls 5 of 9).
For EGASERYYYAN, GKNNRPT, SSRDSSGFQVF, the assay gave 3.62 (2 of 3 replicates; controls 1 of 9).
For ECDSLRYYYDN, GKNNRPS, SSRDSSGFQVP, the assay gave 3.62 (3 of 3 replicates; controls 1 of 9).
For EYDSLRYYYAR, GKNNRPS, SSRTSSGFQVF, the assay gave 3.83 (3 of 3 replicates; controls 1 of 9).
For EGDSLRYYYAN, GKNNTPS, SSRDSSAFQVF, the assay gave 3.83 (1 of 3 replicates; controls 5 of 9).
For EEDSRRYYYAN, GKNNRPS, SSRDSSDFQVF, the assay gave 3.91 (2 of 3 replicates; controls 1 of 9).
For EGDSLVYYYAN, GANNRPS, SSRDWSGFQVF, the assay gave 3.93 (2 of 3 replicates; controls 0 of 9).
For EGCSLRYYYAN, GKNNRPS, KSRDSSGFQSF, the assay gave 3.95 (1 of 3 replicates; controls 3 of 9).
For EGDSLRYSYAN, GKNNRPS, SSRDSSEFQVV, the assay gave 3.98 (1 of 3 replicates; controls 0 of 9).
For EGDSLYHYYAN, GKNNYPS, SSRDSSGFQVF, the assay gave 4.16 (1 of 3 replicates; controls 5 of 9).
For EGDILRYYYAN, WKNNAPS, SSRDSSGFQVF, the assay gave 4.18 (2 of 3 replicates; controls 5 of 9).
For EGDSLRYYYAN, GKNNRPS, VSRDSSGFFAF, the assay gave 4.21 (2 of 3 replicates; controls 0 of 9).
For EGDSERYYYAN, GKNNWPS, SSRDSSGFQVC, the assay gave 4.22 (2 of 3 replicates; controls 6 of 9).
For EGDSLRYYYQN, GKNNRPS, SSRDLEGFQVF, the assay gave 4.33 (2 of 3 replicates; controls 3 of 9).
For EGDSLRYYYAV, GDNNRPS, SSCDSSGFQVF, the assay gave 4.33 (1 of 3 replicates; controls 3 of 9).
For WGDSLRYYYAN, GKNNAPS, SSRDSVGFQVF, the assay gave 4.41 (3 of 3 replicates; controls 5 of 9).
For EGDSLRYYYYN, RQNNRPS, SSRDSSGFQVF, the assay gave 4.42 (3 of 3 replicates; controls 3 of 9).
For EGDSLRYYYAN, GKNPRPS, SCRDSMGFQVF, the assay gave 4.50 (1 of 3 replicates; controls 4 of 9).
For EGDSLRYYYAN, WKNIRLS, SSRDSSGFQVF, the assay gave 4.58 (1 of 3 replicates; controls 2 of 9).
For EGDSLRYYYYN, GKNNRPS, SSRDSEGFQVH, the assay gave 4.72 (1 of 3 replicates; controls 0 of 9).
For EFDSLRYYYAN, GKNNRPS, SSHISSGFQVF, the assay gave 4.87 (2 of 3 replicates; controls 3 of 9).
For EGDSLRYYYHN, GKNNRPS, SSRDLSGFQNF, the assay gave 5.64 (1 of 3 replicates; controls 5 of 9).
For EGDSLRYYYAN, HKNNIPS, SSRDSSGAQVF, the assay gave nd (0 of 3 replicates; controls 3 of 9).
For EGDALRYYYAN, GCNNGPS, SSRDSSGFQVF, the assay gave nd (0 of 3 replicates; controls 1 of 9).

Excerpt, the first 5 entries:

CDR-L1	CDR-L2	CDR-L3	log10 Kd (nM), mean	replicates with signal	signal with controls
EGESLRYYQAN	GKNNRPS	SSRDVSGFQVF	0.98	3 of 3	5 of 9
EGDSLRTYYAN	GKNNRPS	SSRDFSGFQVF	2.06	3 of 3	6 of 9
EGLSLRYYYAN	GKNNRPE	SSRDSAGFQVF	2.29	3 of 3	3 of 9
FGDFLRYYYAN	GKNNRPS	SSRDSSGFQVF	2.32	3 of 3	5 of 9
EGDSTRPYYAN	GKNNRPS	SSRDSSGFQVW	2.33	3 of 3	0 of 9

Source: Engelhart et al. 2022 (doi:10.1038/s41597-022-01779-4), MIT Lincoln Laboratory and A-Alpha Bio; data file from the FLAb repository.